Results on one compound are retold here after patent US10159656B2, “Methods for use of epinephrine fine particles for treatment of conditions responsive to epinephrine” (NOVA SOUTHEASTERN UNIVERSITY, priority 2013, dated 2018).

The conditions of this data set: after processing, one cycle at 30,000 Psi.

For the compound `CNC[C@H](O)c1ccc(O)c(O)c1.O=C(O)C(O)C(O)C(=O)O` [EpiBit After Processing, epinephrine bitartrate microcrystals], the “Pdi (polydispersity index)” value is 0.165.
